Experimental data published in patent US20220170930A1, “METHOD FOR SCREENING COMPOUND FOR TREATING OR PREVENTING POLYQ-RELATED NEURODEGENERATIVE DISEASES” (FUDAN UNIVERSITY, priority 2019, published 2022).

Amino acid sequences for entries named in this document (tags omitted). Chains listed by the source or under a name are the forms on record and can include a tag or linker.
UniProt P54253, with tags, fused parts or gaps with the stated changes: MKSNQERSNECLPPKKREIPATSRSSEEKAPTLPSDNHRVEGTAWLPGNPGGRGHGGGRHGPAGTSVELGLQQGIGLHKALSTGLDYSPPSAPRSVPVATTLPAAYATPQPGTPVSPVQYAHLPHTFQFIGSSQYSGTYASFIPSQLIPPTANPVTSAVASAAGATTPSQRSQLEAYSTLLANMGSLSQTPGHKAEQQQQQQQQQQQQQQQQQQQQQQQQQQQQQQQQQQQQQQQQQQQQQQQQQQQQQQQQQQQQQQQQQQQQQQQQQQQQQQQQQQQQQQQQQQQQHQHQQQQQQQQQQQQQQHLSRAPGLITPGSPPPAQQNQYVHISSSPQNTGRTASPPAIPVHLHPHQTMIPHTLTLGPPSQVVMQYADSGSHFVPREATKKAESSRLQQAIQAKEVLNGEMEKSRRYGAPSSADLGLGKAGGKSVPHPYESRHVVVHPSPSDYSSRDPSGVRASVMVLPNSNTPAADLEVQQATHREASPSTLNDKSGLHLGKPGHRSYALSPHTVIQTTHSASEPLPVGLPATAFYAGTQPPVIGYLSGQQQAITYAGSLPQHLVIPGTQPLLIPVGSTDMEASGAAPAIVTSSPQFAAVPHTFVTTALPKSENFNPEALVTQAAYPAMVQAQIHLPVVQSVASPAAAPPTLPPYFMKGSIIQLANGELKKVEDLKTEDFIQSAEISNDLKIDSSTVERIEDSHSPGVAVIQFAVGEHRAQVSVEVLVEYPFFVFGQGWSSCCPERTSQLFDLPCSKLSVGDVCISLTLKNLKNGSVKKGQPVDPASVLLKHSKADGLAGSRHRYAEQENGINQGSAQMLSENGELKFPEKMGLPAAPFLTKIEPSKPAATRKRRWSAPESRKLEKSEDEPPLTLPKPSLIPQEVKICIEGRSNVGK

Molecular target: T1, mutant ATXN1 protein (His-ATXN1-Q92) (Homo sapiens, UniProt P54253, INS208QQQQQQQQQQQQQQQQQQQQQQQQQQQQQQQQQQQQQQQQQQQQQQQQQQQQQQQQQQQQQQQQQQQQQQQQQQQQQQQQ)
T1 construct: expressed in transfected cells; host or cells: HEK293T cells (ATCC, CRL-3216)
Test: HTRF mutant ATXN1 level in His-ATXN1-Q92-expressing cells
Assay type: cell-based

SMILES | level of mutant ATXN1 protein (His-ATXN1-Q92)
O=c1cc(-c2ccccc2)c2ccc(O)c(O)c2o1 [compound 7] | Decreased levels of mutant ATXN1 were observed
COc1ccc2c(c1)/C(=C/c1cnc[nH]1)C(=O)N2 [compound 6, Su9516] | Decreased levels of mutant ATXN1 were observed
